Measurements: paper PMC8626637, “Successful Prediction of Human Fetal Exposure to P-Glycoprotein Substrate Drugs Using the Proteomics-Informed Relative Expression Factor Approach and PBPK Modeling and Simulation” (Drug Metabolism and Disposition, 2021)

Test system: human P-gp
Assay: in vitro
Conditions: MDCK-MDR1, pH 7.4

| SMILES | efflux ratio |
| --- | --- |
| C[C@H]1C[C@H]2[C@@H]3CCC4=CC(=O)C=C[C@]4(C)[C@@]3(F)[C@@H](O)C[C@]2(C)[C@@]1(O)C(=O)CO [BET, betamethasone] | 0.99 ± 0.07 |
| C[C@@H]1C[C@H]2[C@@H]3CCC4=CC(=O)C=C[C@]4(C)[C@@]3(F)[C@@H](O)C[C@]2(C)[C@@]1(O)C(=O)CO [DEX, dexamethasone] | 1.03 ± 0.22 |
